# Only a part is listed here, and it is no random draw. Calls of active or inactive are those of the source.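 Rule for the calls: active = mean normalized replicate activity at least 40 and at least half of replicates scoring 40 or more; inconclusive = only one of the two criteria met; inactive = mean below 40 and under half of replicates reaching 40.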
# By UniProt entry, the sequences of proteins in these tests, tags left out. Where a name states a change or a piece, a line headed by the entry shows the natural chain unless it says otherwise.
# UniProt Q92698: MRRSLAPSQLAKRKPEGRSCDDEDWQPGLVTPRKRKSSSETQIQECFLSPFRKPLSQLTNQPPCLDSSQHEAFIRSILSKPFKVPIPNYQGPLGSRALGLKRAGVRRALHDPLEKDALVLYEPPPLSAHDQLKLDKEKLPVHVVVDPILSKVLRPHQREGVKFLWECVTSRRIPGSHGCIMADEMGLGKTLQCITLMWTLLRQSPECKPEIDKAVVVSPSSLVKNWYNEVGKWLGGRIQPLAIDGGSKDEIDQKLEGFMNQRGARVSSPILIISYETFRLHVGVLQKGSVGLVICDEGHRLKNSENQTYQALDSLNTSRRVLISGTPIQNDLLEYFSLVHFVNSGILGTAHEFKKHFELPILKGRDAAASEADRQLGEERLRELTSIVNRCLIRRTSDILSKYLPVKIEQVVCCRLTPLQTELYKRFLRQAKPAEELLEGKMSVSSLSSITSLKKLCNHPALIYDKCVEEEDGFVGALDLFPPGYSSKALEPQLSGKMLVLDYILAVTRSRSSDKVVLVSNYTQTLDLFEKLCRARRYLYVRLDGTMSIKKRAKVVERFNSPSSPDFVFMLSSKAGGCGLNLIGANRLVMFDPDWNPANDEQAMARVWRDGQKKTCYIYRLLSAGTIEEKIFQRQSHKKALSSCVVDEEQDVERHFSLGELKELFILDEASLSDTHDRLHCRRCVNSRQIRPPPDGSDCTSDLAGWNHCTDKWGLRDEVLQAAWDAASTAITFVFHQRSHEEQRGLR
# Target: DNA repair and recombination protein RAD54-like (Homo sapiens) (UniProt Q92698)
# Assay: RAD54 Holliday junction migration blockers – biochemical, fluorescence, single point, primary screen (AID 602329);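 note: 0% = median of neutral control wells and 100% = median of positive control wells; inhibitors cause a drop in the FAM fluorescence signal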
# Conditions: RAD54 Holliday junction branch migration, FAM/BHQ fluorescence; at 10.4 µM; hits give high values
row,Structure (SMILES),inhibition
1,Cc1ccc(OP(=O)(Nc2ccc([N+](=O)[O-])cn2)Oc2ccc(C)cc2)cc1,inactive: -6.65%
2,C[As](=O)(O)c1cccc(C(=O)O)c1,inactive: 5.62%
3,O=[As](O)(c1ccc(O)cc1)c1ccccc1O,inactive: -2.88%
4,O=[N+]([O-])c1ccc(-c2cc([N+](=O)[O-])c(O)c([N+](=O)[O-])c2)cc1,inactive: -6.1%
5,CCN(CC)C(=S)SC(NC=O)C(Cl)(Cl)Cl (centres undefined),inactive: -2.23%
6,O=C(OC1CN2CCC1CC2)c1cccc2[nH]cnc12 (centres undefined),inactive: 11.5%
7,ClCCSc1nnc(-c2cccnc2)o1,inactive: 7.59%
8,CC(C)c1ccc(OP(=O)(Nc2ccccn2)Oc2ccccc2F)cc1 (centres undefined),inactive: -13.4%
9,O=P1(N(CCCl)CCCl)Nc2ccccc2N1,inactive: -0.344%
10,COc1ccc(CN2/C(=N\P(=O)(Oc3ccccc3)Oc3ccccc3)Cc3ccccc3C2C2CC2)cc1 (centres undefined),inactive: 0.0625%
11,COc1cc(I)ccc1[As](=O)(O)O,inactive: -2.78%
12,O=C(OC1CN2CCC1CC2)C12CC3CC(CC(C3)C1)C2 (centres undefined),inactive: -1.55%
13,Cc1cc(=O)[nH]c(N[N+](=O)[O-])n1,inactive: 6.74%
14,COc1ccc(N/C(=N/P(=O)(N2CCOCC2)N2CCOCC2)N2CCOCC2)cc1,inactive: -9.04%
15,O=C(O)C(=O)c1ccc(N(CCCl)CCCl)cc1,inactive: -0.0855%
16,O=C(COc1ccccc1)OC1CN2CCC1CC2 (centres undefined),inactive: -6.97%
17,O=C(Nc1ccncc1[N+](=O)[O-])c1ccc([N+](=O)[O-])cc1[N+](=O)[O-],inactive: 11.5%
18,COP1(=S)c2c(C)nn(CCC#N)c2N=C(c2ccc(F)cc2)N1C (centres undefined),inactive: 10.3%
19,CCC(C)N(CC(C)C)C(=S)SC(NC(C)=O)C(Cl)(Cl)Cl (centres undefined),inactive: 1.24%
20,O=C(OC1CN2CCC1CC2)c1cccc([N+](=O)[O-])c1 (centres undefined),inactive: 1.01%
21,CSc1ccc(Nc2c([N+](=O)[O-])cc([N+](=O)[O-])cc2[N+](=O)[O-])cc1,inactive: -4.16%
22,CCOC(=O)c1ccc(NC(=O)C(C)(CCl)SC)cc1 (centres undefined),inactive: -2.83%

row,Structure (SMILES),inhibition
1,COP(=O)(OC)N1CC1c1ccccc1 (centres undefined),inactive: -0.61%
2,CCCCOc1ccc(C(=O)NCC2(N3CCCCC3)CCCCC2)cc1OC,inactive: -6.13%
3,O=C(O)C(O)c1ccc(N(CCCl)CCCl)cc1 (centres undefined),inactive: 5.65%
4,CCOC(=O)Nc1ccc([As](=O)(O)O)c(O)c1,inactive: 1.73%
5,CC1CCNP(=O)(N(CCCl)CCCl)O1 (centres undefined),inactive: -0.231%
6,O=[N+]([O-])c1ccc(Nc2ccc(Oc3ccc([N+](=O)[O-])cc3[N+](=O)[O-])cc2)c([N+](=O)[O-])c1,inactive: -8.9%
7,CCOC(=O)Nc1cccc([As](=O)(O)O)c1,inactive: -0.0855%
8,Cc1nn(-c2ccccc2)c2c1P(=O)(N1CCOCC1)N(C)C(c1ccccc1)=N2 (centres undefined),inactive: 11.4%
9,Cc1ccc(C(=O)OC2CN3CCC2CC3)cc1 (centres undefined),inactive: -1.95%
10,CC1CCC(C(C)C)C(OP(=O)(Nc2ccccn2)c2ccccc2)C1 (centres undefined),inactive: -2.13%
11,Nc1cccc([As](=O)(O)c2ccccc2)c1,inactive: 9.11%
12,NS(=O)(=O)c1cccc(NC(=O)COC(=O)C(O)(c2ccccc2)c2ccccc2)c1,inactive: 2.06%
13,O=P1(Nc2ccc(Br)cn2)COc2ccccc2OC1,inactive: 5.27%
14,Cc1ccc(OCC(=O)OC2CN3CCC2CC3)cc1 (centres undefined),inactive: -12.1%
15,O=[As](O)(c1cccs1)c1cccs1,inactive: 5.89%
16,Cc1ccc(S(=O)(=O)N(CCCN)CCCc2c(C)nc(N)[nH]c2=O)cc1,inactive: 2.5%
17,O=P1(Nc2ncccn2)COc2ccccc2OC1,inactive: -8.9%
18,Clc1n[nH]nc1-c1nn[nH][15n]1,inactive: -8.73%
19,O=P1(N(CCCl)CCCl)NCCC(C(F)(F)F)O1 (centres undefined),inactive: -4.15%
20,CC(C)(C)C(=O)NC(Sc1ncccn1)C(Cl)(Cl)Cl (centres undefined),inactive: 7.07%
21,CCC1=CC2Cc3nc4ccc(Cl)cc4c(N)c3C(C1)C2 (centres undefined),inactive: -6.9%
22,O=P1(Nc2ccccn2)COc2ccccc2OC1,inactive: 11.7%

row,Structure (SMILES),inhibition
1,CCOP(=O)(NC(=NC(C)c1ccccc1)NC(C)c1ccccc1)OCC (centres undefined),inactive: 0.545%
2,CN(CCCl)Cc1cc(Cl)c(NC2=NCCN2)c(Cl)c1,inactive: -3.99%
3,CN(C(=O)Cc1ccc(Cl)c(Cl)c1)[C@@H]1CCCC[C@H]1N1CCCC1,inactive: 4.75%
4,CC(C)/C=N\N=C(\N)N[N+](=O)[O-],inactive: 1.41%
5,O=[As](O)(c1cccc(O)c1)c1cccc(O)c1,inactive: -8.82%
6,Cc1cccc(OCC(=O)OC2CN3CCC2CC3)c1 (centres undefined),inactive: -4.77%
7,O=C(OC1CN2CCC1CC2)c1ccc(Cl)cc1 (centres undefined),inactive: 13%
8,O=[As](O)(O)c1cccnc1,inactive: 4.58%
9,CS(=O)(=O)c1ccc(Cl)c(NC(=O)COC(=O)C(O)(c2ccccc2)c2ccccc2)c1,inactive: -4.42%
10,Cc1ccc(NCCc2c([N+](=O)[O-])cc([N+](=O)[O-])cc2[N+](=O)[O-])cc1,inactive: 3.74%
11,Nc1cccc2c([As](=O)(O)O)cccc12,inactive: -52.6%
12,CCCOP(=S)(Nc1nc(N)cc(=O)[nH]1)OCCC,inactive: 3.11%
13,O=C(O)COc1ccc([As](=O)(O)O)cc1[N+](=O)[O-],inactive: 7.8%
14,Nc1ccccc1[As](=O)(O)c1ccccc1,inactive: -12%
15,CCOP1(=S)c2c(C)nn(CCC#N)c2N=C(c2ccccc2F)N1C (centres undefined),inactive: -16.7%
16,O=P(Nc1nccs1)(c1ccccc1)c1nc2ccccc2s1 (centres undefined),inactive: -4.98%
17,N#CCCN(C(=O)COC(=O)C(O)(c1ccccc1)c1ccccc1)c1ccc(F)cc1,inactive: 6.9%
18,CCOP1(=S)c2c(C)nn(CCC#N)c2N=C(c2ccc(F)cc2)N1C (centres undefined),inactive: 4.28%
19,CN(C(=O)Cc1ccccc1)[C@@H]1CC[C@]2(CCCO2)C[C@H]1N1CCCC1,inactive: -13.9%
20,CN(C)C(=O)c1cc([N+](=O)[O-])cc2c1-c1c(cc([N+](=O)[O-])cc1[N+](=O)[O-])C2=O,inactive: -4.18%
